Assay [1] deals with T1, Acetylcholinesterase (Rattus norvegicus) (UniProt P37136).
T1 sequence (whole entry): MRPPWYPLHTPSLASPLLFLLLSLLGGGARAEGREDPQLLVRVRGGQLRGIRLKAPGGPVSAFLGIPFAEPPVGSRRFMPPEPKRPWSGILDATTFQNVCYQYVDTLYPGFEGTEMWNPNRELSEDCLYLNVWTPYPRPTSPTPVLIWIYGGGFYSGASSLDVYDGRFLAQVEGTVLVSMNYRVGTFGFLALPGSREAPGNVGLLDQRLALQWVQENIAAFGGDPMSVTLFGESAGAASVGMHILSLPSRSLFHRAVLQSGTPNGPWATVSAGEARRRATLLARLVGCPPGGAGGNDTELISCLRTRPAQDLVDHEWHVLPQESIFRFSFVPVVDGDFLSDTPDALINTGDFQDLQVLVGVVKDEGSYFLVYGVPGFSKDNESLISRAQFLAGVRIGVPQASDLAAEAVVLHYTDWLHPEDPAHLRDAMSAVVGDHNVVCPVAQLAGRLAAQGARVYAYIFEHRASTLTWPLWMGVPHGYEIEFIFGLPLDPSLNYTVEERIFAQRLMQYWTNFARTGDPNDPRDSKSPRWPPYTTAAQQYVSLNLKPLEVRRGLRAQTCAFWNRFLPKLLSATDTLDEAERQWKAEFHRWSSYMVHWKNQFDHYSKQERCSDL
Briefly: Reactivation of VX-inhibited AChE in rat brain homogenate at 10 uM. Set-up: scale not given: the % may be the effect or the level left.

Assay [2] concerns the target T1, Acetylcholinesterase (Rattus norvegicus). Kind of assay: Reactivation of VX-inhibited AChE in rat brain homogenate at 1000 uM. Further details: scale not given: the % may be the effect or the level left.

Structures are written as SMILES.

In the case of `NC(=O)c1cc[n+](COC[n+]2ccccc2/C=N/O)cc1`, the Activity in assay [1] was 13%; in assay [2] it was 28%.

The values above are taken from ChEMBL document CHEMBL1137235, “Bis-pyridiumaldoxime reactivators connected with CH2O(CH2)n OCH2 linkers between pyridinium rings and their reactivity against VX” (2006).
